The list shows a part of the results, in another mix than the full data. The source made the active and inactive calls.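 The calls were made as follows: active = at 10 µM dose, activation of 40% or more, normalized to positive control; inactive = the rest.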

This experiment can be described thus: activators of apoptotic CHOP UPR arm, primary screen, cell-based, CHO-CHOP luciferase reporter, luminescence, uHTS (AID 449763).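 Also: 100% = tunicamycin at 10 µg/mL and 0% = DMSO alone.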 Particulars: at 10 µM, hits give high values, percent of tunicamycin response over DMSO baseline. The gist of the method: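 Assay system: CHO-CHOP cells, stable luciferase reporter of PERK-eIF2a-CHOP signalling / Buffer or medium: F12 plus 10% serum / Compound dosing: one dose, 10 µM in 0.5% DMSO / Times: 6 h compound treatment, 37 °C / Technique: luciferase luminescence / Read-out: % reporter activation, DMSO baseline versus tunicamycin full activation / Benchmarks: tunicamycin and DMSO controls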
(In general: A reporter such as luciferase makes a cellular process visible.)
As to `O=P1(Nc2ccc(Br)cn2)COc2ccccc2OC1`, the activation was inactive: -1.22%.
Regarding `NS(=O)(=O)c1cccc(NC(=O)COC(=O)C(O)(c2ccccc2)c2ccccc2)c1`, the activation was inactive: 2.39%.
`O=[As](O)(c1cccs1)c1cccs1`: the activation is inactive: 0.0534%.
Under `Cc1ccc(OCC(=O)OC2CN3CCC2CC3)cc1` (stereo not given) stands inactive: 4.59%; under `Nc1cccc([As](=O)(O)c2ccccc2)c1`, inactive: -1.5%; under `O=P1(Nc2ncccn2)COc2ccccc2OC1`, inactive: -0.877%.
Under `O=C(/C=C/c1ccccc1)OC1CN2CCC1CC2` (stereo not given) stands inactive: -3.17%; under `CN(C)C1(CNC(=O)c2ccc(S(C)(=O)=O)cc2)CCCCC1`, inactive: -1.47%; under `Cc1nn(-c2ccccc2)c2c1P(=O)(N1CCOCC1)N(C)C(c1ccccc1)=N2` (stereo not given), inactive: 1.05%.
Under `CC1CCC(C(C)C)C(OP(=O)(Nc2ccccn2)c2ccccc2)C1` (stereo not given) stands inactive: 0.95%; under `Cc1ccc(C(=O)OC2CN3CCC2CC3)cc1` (stereo not given), inactive: 0.341%.
Regarding `O=[As](O)(c1ccccc1Br)c1ccccc1Br`, the activation was inactive: -0.443%.
As to `CC1(CBr)Cn2c(nc3ccccc3c2=O)S1` (stereo not given), the activation is inactive: 0.515%.
Take `CC(C)/C=N\N=C(\N)N[N+](=O)[O-]`: the activation was inactive: 1.1%.
`CN(C(=O)Cc1ccc(Cl)c(Cl)c1)[C@@H]1CCCC[C@H]1N1CCCC1`: the activation was inactive: -0.704%.
Turning to `COc1ccccc1CNC(=O)COC(=O)C(O)(c1ccccc1)c1ccccc1`, the activation was inactive: -0.851%.
In the case of `Clc1n[nH]nc1-c1nn[nH][15n]1`, the activation is inactive: -0.754%.
Regarding `CC(C)(C)C(=O)NC(Sc1ncccn1)C(Cl)(Cl)Cl` (stereo not given), the activation was inactive: -0.45%.
For the molecule `CN(CCCl)Cc1cc(Cl)c(NC2=NCCN2)c(Cl)c1`, the activation is inactive: 0.389%.
As to `CCOP(=O)(Nc1ccc(C)cn1)OCC`, the activation was inactive: -0.905%.
Turning to `O=P1(Nc2ccccn2)COc2ccccc2OC1`, the activation is inactive: -0.874%.
As for `CCC1=CC2Cc3nc4ccc(Cl)cc4c(N)c3C(C1)C2` (stereo not given), the figure is inactive: -1.14%; as for `CCOP(=O)(NC(=NC(C)c1ccccc1)NC(C)c1ccccc1)OCC` (stereo not given), inactive: 0.814%.
As to `COc1cc(C2NCCC3(OCCO3)C2(C)C)cc(OC)c1OC` (stereo not given), the activation is inactive: 1.76%.
Under `CCOP(=O)(Nc1cccc2ccccc12)OCC` stands inactive: 0.818%; under `CCCOP(=S)(Nc1nc(N)cc(=O)[nH]1)OCCC`, inactive: 2.27%; under `Cc1ccc(NCCc2c([N+](=O)[O-])cc([N+](=O)[O-])cc2[N+](=O)[O-])cc1`, inactive: 3.46%.
With `O=[As](O)(c1cccc(O)c1)c1cccc(O)c1`, the activation is inactive: -0.721%.
As for `Cc1cccc(OCC(=O)OC2CN3CCC2CC3)c1` (stereo not given), the figure is inactive: 3.66%; as for `COc1cc(C(=O)NCC2(N3CCOCC3)CCCCC2)cc(Cl)c1OC(C)C`, inactive: 0.863%; as for `O=[As](O)(O)c1cccnc1`, inactive: -0.136%.
As for `CS(=O)(=O)c1ccc(Cl)c(NC(=O)COC(=O)C(O)(c2ccccc2)c2ccccc2)c1`, the figure is inactive: -0.778%; as for `O=C(OC1CN2CCC1CC2)c1ccc(Cl)cc1` (stereo not given), inactive: 0.5%.
In the case of `CN(C)C(=O)c1cc([N+](=O)[O-])cc2c1-c1c(cc([N+](=O)[O-])cc1[N+](=O)[O-])C2=O`, the activation is inactive: -10.4%.
As for `O=[N+]([O-])c1ccc2c(c1)nnn2O`, the figure is inactive: 0.273%.
As to `CN(C(=O)Cc1ccc(Cl)c(Cl)c1)[C@H]1CC[C@@]2(CCCO2)C[C@@H]1N1CCCC1`, the activation is inactive: 1.54%.
Under `N#CCCN(C(=O)COC(=O)C(O)(c1ccccc1)c1ccccc1)c1ccc(F)cc1` stands inactive: 4.89%.
Regarding `CCOP1(=S)c2c(C)nn(CCC#N)c2N=C(c2ccc(F)cc2)N1C` (stereo not given), the activation is inactive: -0.762%.
Under `CN(C(=O)Cc1ccccc1)[C@@H]1CC[C@]2(CCCO2)C[C@H]1N1CCCC1` stands inactive: -0.926%.
Regarding `NC(=O)Nc1ccc([As](=O)(O)O)cc1`, the activation is inactive: 3.88%.
Consider `Nc1ccccc1[As](=O)(O)c1ccccc1`, for which the activation is inactive: -0.45%.
Regarding `O=C(O)COc1ccc([As](=O)(O)O)cc1[N+](=O)[O-]`, the activation is inactive: -3.64%.
On to `CS(=O)(=O)c1cc([N+](=O)[O-])c2no[n+]([O-])c2c1`, for which the activation is inactive: 1.68%.
Under `CCOP1(=S)c2c(C)nn(CCC#N)c2N=C(c2ccccc2F)N1C` (stereo not given) stands inactive: 2.19%; under `O=P(Nc1nccs1)(c1ccccc1)c1nc2ccccc2s1` (stereo not given), inactive: 1.51%; under `O=P(Nc1nccs1)(Oc1ccccc1)Oc1ccccc1`, inactive: -1.65%.
As for `O=C(OC1CN2CCC1CC2)c1cccc2[nH]cnc12` (stereo not given), the activation is inactive: -1.24%.
Consider `CCN(CC)C(=S)SC(NC=O)C(Cl)(Cl)Cl` (stereo not given), for which the activation was active: 183%.
Under `CC(C)NC(=O)NP(=O)(Oc1ccccc1)Oc1ccccc1` stands inactive: -0.474%; under `O=[N+]([O-])c1cc([N+](=O)[O-])c(-c2ccn[nH]2)s1`, inactive: -0.139%; under `CC(C)c1ccc(OP(=O)(Nc2ccccn2)Oc2ccccc2F)cc1` (stereo not given), inactive: 0.848%.
As for `ClCCSc1nnc(-c2cccnc2)o1`, the figure is inactive: -0.653%; as for `Cc1ccc2nc3c(c(C)c2c1)CC(C(Cl)Cl)S3` (stereo not given), inactive: 4.92%.
Regarding `Cc1ccc(OP(=O)(Nc2ccc([N+](=O)[O-])cn2)Oc2ccc(C)cc2)cc1`, the activation was inactive: -0.223%.
`C[As](=O)(O)c1cccc(C(=O)O)c1`: the activation was inactive: -1.77%.
With `O=[As](O)(c1ccc(O)cc1)c1ccccc1O`, the activation is inactive: 0.0762%.
`COc1cc(C(=O)NCC2(N3CCOCC3)CCCCC2)ccc1OCC(C)C`: the activation is inactive: -1.26%.
`COc1ccc(N/C(=N/P(=O)(N2CCOCC2)N2CCOCC2)N2CCOCC2)cc1`: the activation is inactive: 0.153%.
`COc1ccc2nc(NP(=O)(c3ccccc3)c3ccccc3)sc2c1`: the activation was inactive: -1.28%.
As for `COc1cc(I)ccc1[As](=O)(O)O`, the figure is inactive: 0.791%; as for `O=C(OC1CN2CCC1CC2)C12CC3CC(CC(C3)C1)C2` (stereo not given), inactive: -0.0224%; as for `Cc1cc(=O)[nH]c(N[N+](=O)[O-])n1`, inactive: -2.05%.
Consider `Cc1c2c(nc3ccccc13)SC(C(Cl)Cl)C2` (stereo not given), for which the activation is inactive: 1.12%.
For the molecule `CCC(C)N(CC(C)C)C(=S)SC(NC(C)=O)C(Cl)(Cl)Cl` (stereo not given), the activation was inactive: 2.55%.
As for `CCOC(=O)c1ccc(NC(=O)C(C)(CCl)SC)cc1` (stereo not given), the figure is inactive: 0.24%; as for `O=C(OC1CN2CCC1CC2)c1cccc([N+](=O)[O-])c1` (stereo not given), inactive: 1.94%.
Regarding `O=C(COc1ccccc1)OC1CN2CCC1CC2` (stereo not given), the activation is inactive: -0.786%.
As for `O=C(Nc1ccncc1[N+](=O)[O-])c1ccc([N+](=O)[O-])cc1[N+](=O)[O-]`, the figure is inactive: -0.983%; as for `COP1(=S)c2c(C)nn(CCC#N)c2N=C(c2ccc(F)cc2)N1C` (stereo not given), inactive: -2.36%; as for `O=P(Nc1ccccn1)(c1cccc2ccccc12)c1cccc2ccccc12`, inactive: -0.616%.
On to `Cc1cc(SC(NC=O)C(Cl)(Cl)Cl)ncn1` (stereo not given), for which the activation is inactive: -0.819%.
As for `CCOC(=O)Nc1cccc([As](=O)(O)O)c1`, the figure is inactive: -0.185%.
For the molecule `CCCCOc1ccc(C(=O)NCC2(N3CCCCC3)CCCCC2)cc1OC`, the activation was inactive: 1.87%.
As for `Cc1cc(SC(NC(=O)c2ccccc2)C(Cl)(Cl)Cl)nc(C(C)C)n1` (stereo not given), the figure is inactive: 1.5%; as for `CCOC(=O)Nc1ccc([As](=O)(O)O)c(O)c1`, inactive: 5.12%; as for `O=[N+]([O-])c1cccc(NC2=NCC(CBr)S2)c1` (stereo not given), inactive: -0.159%.
Turning to `CC(C)(C)C(=O)NC(Sc1ccncn1)C(Cl)(Cl)Cl` (stereo not given), the activation was inactive: -2.18%.
Under `O=[N+]([O-])c1ncn(CCn2ncnc2[N+](=O)[O-])n1` stands inactive: 1.71%; under `O=C(Nc1cc([As](=O)(O)O)ccc1O)c1ccccc1`, inactive: 1.95%; under `CC(C)=N/N=C(\N)N[N+](=O)[O-]`, inactive: -1.44%.
Consider `CN(C)C(=O)OCCc1n(C)cc[n+]1C`, for which the activation was inactive: 3.58%.
For the molecule `CC1CCN(C(=O)Oc2c(Cl)cc(Cl)c3cccnc23)CC1`, the activation was inactive: -3.79%.
With `Nc1ccc([As](=O)(O)c2ccc(N)cc2)cc1`, the activation was inactive: 2.34%.
For the molecule `C[N+]1=C2C=CC=CC=C2SC12C([N+](=O)[O-])=CC([N+](=O)[O-])=C[C-]2[N+](=O)[O-]` (stereo not given), the activation was active: 320%.
In the case of `CCN(/C(=N/P(=O)(N1CCOCC1)N1CCOCC1)N1CCOCC1)c1ccc(OC)cc1`, the activation was inactive: -0.255%.
As to `O=[N+]([O-])c1cccc2n[nH]nc12`, the activation was inactive: -1.03%.
As for `CC(=O)N1C2C3N(C(C)=O)C1C1N(C(C)=O)C(C(N1C(C)=O)N3C(C)=O)N2C(C)=O`, the figure is inactive: 0.163%; as for `Cc1ccc(NP(=O)(Oc2ccccc2)Oc2ccccc2)nc1`, inactive: -0.638%; as for `CCc1nc2c(n1)c1c(non1O)c1c2no[n+]1[O-]`, inactive: 33.3%.
In the case of `O=[N+]([O-])c1cc([N+](=O)[O-])c(CCNc2ccccc2)c([N+](=O)[O-])c1`, the activation is inactive: 0.797%.
As for `COc1ccc(C2=NCC(CBr)S2)cc1` (stereo not given), the figure is inactive: 0.424%; as for `CC(C)CC(=O)NC(Sc1ccc(Cl)cc1)C(Cl)(Cl)Cl` (stereo not given), inactive: -2.29%; as for `Nc1cc(N)c2nonc2c1[N+](=O)[O-]`, inactive: 0.66%.
Under `Oc1ccccc1CNc1ccccn1` stands inactive: 0.499%.
Take `Cc1c2non([O-])c-2c(C)[n+](=O)[n+]1[O-]`: the activation was inactive: 26.5%.
Under `O=C(NC(Sc1ccncn1)C(Cl)(Cl)Cl)c1ccccc1` (stereo not given) stands inactive: 2.05%.
On to `COc1ccccc1OP(=O)(Nc1ccc(C)cn1)Oc1ccccc1OC`, for which the activation was inactive: -0.0321%.
Take `Cc1ccc(OP(=O)(Nc2nccs2)Oc2ccc(C)cc2)cc1`: the activation is inactive: -0.299%.
On to `Clc1ccc(Cl)c(NC2=NCC(CBr)S2)c1` (stereo not given), for which the activation was inactive: 1.35%.
Under `CN1CCCC(OC(=O)C(c2ccccc2)c2ccccc2)C1` (stereo not given) stands inactive: 1.03%.

For the origin of these results see PubChem BioAssay AID449763 (Sanford-Burnham Center for Chemical Genomics, 2010).
